Target: hKv1.2 (Homo sapiens, UniProt P16389)
Assay: patch-clamp whole-cell recording, K+ current block
Type: cell-based
Procedure: Electrophysiological experiments were carried out at 22-24° C. using the patch-clamp whole-cell recording mode. Cells were bathed with mammalian Ringer's solution (in mM): 160 NaCl, 4.5 KCl, 2 CaCl2, 1 MgCl2, and 10 HEPES (pH 7.4 with NaOH), with an osmolarity of 290-320 mOsm. […] A syringe-driven perfusion device was used to exchange the external recording bath solution. Two internal pipette solutions were used, one for measuring voltage-gated K^+ currents that contained (in mM): 155 KF, 2 MgCl2, 10 HEPES, and 10 EGTA (pH 7.2 with KOH), with an osmolarity of 290-320 mOsm and another for measuring Ca^2+-activated K^+ currents that contained (in mM): 135 K-aspartate, 8.7 CaCl2, 2 MgCl2, 10 EGTA, 10 HEPES (pH 7.2 with KOH), with an osmolarity of 290-320 mOsm. A free [Ca^2+]i of 1 μM was calculated. All currents through voltage-gated K^+ channels were elicited by 200 ms depolarising voltage steps from −80 to +40 mV. […] Membrane currents were measured with an EPC-9 or EPC-10 patch-clamp amplifier (HEKA Elektronik, Lambrecht, Germany) interfaced to a Macintosh computer running acquisition and analysis software (Pulse and PulseFit). When voltage-gated K^+ currents were measured, the capacitive and leak currents were subtracted using a P/10 procedure. […]

Amino acid sequences for entries named in this document (tags omitted).
UniProt P16389, whole entry: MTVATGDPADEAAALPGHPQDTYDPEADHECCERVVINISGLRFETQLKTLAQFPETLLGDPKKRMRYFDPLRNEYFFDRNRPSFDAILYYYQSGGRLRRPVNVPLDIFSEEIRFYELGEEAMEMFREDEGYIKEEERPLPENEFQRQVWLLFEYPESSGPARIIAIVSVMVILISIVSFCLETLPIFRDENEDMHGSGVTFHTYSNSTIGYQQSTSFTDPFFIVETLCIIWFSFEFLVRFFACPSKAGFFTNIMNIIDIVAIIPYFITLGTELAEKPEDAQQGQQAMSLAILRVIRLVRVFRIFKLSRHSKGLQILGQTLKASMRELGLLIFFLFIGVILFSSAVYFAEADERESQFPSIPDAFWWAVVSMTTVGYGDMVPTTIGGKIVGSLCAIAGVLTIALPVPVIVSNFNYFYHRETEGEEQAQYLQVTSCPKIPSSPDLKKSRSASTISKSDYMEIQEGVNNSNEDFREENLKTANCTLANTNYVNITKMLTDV

Structure (SMILES): CC[C@H](C)[C@@H]1NC(=O)[C@H](CCCCN)NC(=O)[C@@H](NC(=O)[C@H](CCCCN)NC(=O)[C@@H](NC(=O)[C@H](CC(N)=O)NC(=O)[C@@H](NC(=O)[C@@H](NC(=O)[C@@H](NC(=O)CN)C(C)C)[C@@H](C)CC)[C@@H](C)CC)C(C)C)CSSC[C@@H]2NC(=O)[C@H](CCCCN)NC(=O)CNC(=O)[C@H](Cc3ccccc3)NC(=O)[C@H](CCCNC(=N)N)NC(=O)[C@H](CCSC)NC(=O)CNC(=O)[C@H](C)NC(=O)[C@H](CCCCN)NC(=O)[C@H](CCCCN)NC(=O)[C@@H]3CSSC[C@@H](C(=O)N[C@H](C(=O)N4CCC[C@H]4C(=O)N[C@@H](CCCCN)C(=O)O)[C@@H](C)O)NC(=O)[C@H](Cc4c[nH]cn4)NC(=O)[C@H](CSSC[C@H](NC(=O)[C@H](CCC(N)=O)NC(=O)[C@H](CCCNC(=N)N)NC(=O)[C@H](CO)NC1=O)C(=O)N[C@@H](CC(C)C)C(=O)N[C@@H](CCC(=O)O)C(=O)N1CCC[C@H]1C(=O)N3)NC(=O)[C@H](CCCCN)NC(=O)CNC(=O)[C@H](CC(N)=O)NC(=O)[C@H](CCSC)NC2=O [OsK1, reference compound]
- activity on Kv1.2 channel (in words): potently active

— patent US7745575B1 (Cellpep Pharma Inc., priority 2004, dated 2010)
